Test results reported in publication PMC9029089, “1,5-Disubstituted Acylated 2-Amino-4,5-dihydroimidazoles as a New Class of Retinoic Acid Receptor–Related Orphan Receptor (ROR) Inhibitors” (International Journal of Molecular Sciences, 2022).

Target: T1, RORγ (Mus musculus, UniProt P51450)
T1 construct: mRORγ (Pro-261-end); expressed in transfected cells
T1 sequence (P51450 261-516 limits assumed): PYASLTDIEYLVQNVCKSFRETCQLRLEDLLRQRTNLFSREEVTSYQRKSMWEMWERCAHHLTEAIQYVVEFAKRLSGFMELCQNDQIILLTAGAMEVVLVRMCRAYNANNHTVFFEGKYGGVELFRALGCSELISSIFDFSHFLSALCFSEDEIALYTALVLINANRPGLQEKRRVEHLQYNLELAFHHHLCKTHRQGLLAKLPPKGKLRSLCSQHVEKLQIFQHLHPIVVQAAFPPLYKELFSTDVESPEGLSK
Experiment: Gal4-RORγ-LBD UAS-luciferase reporter assay in TRex-CHO-K1 cells (doxycycline-stimulated)
Type: cell-based
Settings: library 2520, RORγ cells

% Inhibition at 4 μM (N=3): -23.6%
Structure (SMILES): CC(C)C(=O)NC1=NCC(Cc2ccc3ccccc3c2)N1CCC1CC2CCC1C2 (mixture of isomers) [2520.08]
